Curated experimental data: melting point values

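The numbers are reported measurements, compiled and curated for the OPERA QSAR suite. One number stands for a compound and property, with no spread given. Method, purity and exact conditions of the single measurements are not given. The measured form (salt, isomer or mixture) is not always the one drawn. Unmarked limits or estimates from the upstream databases cannot be ruled out.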

Melting points are in °C.
"via" names the databases from which the curators took the value.

| structure (SMILES) | MP (°C) | via |
|---|---|---|
| FC(F)(F)c1nnc2ccc(Cl)nn12 | 70 | OCHEM |
| O=C(O)c1c[nH]c(=O)[nH]1 | 234 | OCHEM |
| CC(=O)NCc1ccc(S(N)(=O)=O)cc1 | 171 | OCHEM |
| C=CC(=O)OCCCCCCCCCCCCCCCCCCCCCC | 30 | eChemPortal |
| CCCCN(c1nc(N2CCCC2)nc(N(CCCC)C2CC(C)(C)N(C)C(C)(C)C2)n1)C1CC(C)(C)N(C)C(C)(C)C1 | 158 | eChemPortal |
| O=C(O)CCc1ccncc1 | 210 | OCHEM |
| O=C(O)CNC(=O)Nc1ccccc1 | 197 | OCHEM |
| NS(=O)(=O)C1CCS(=O)(=O)C1 (centres undefined) | 145 | OCHEM |
| O=C(O)c1ccc(NC(=O)c2ccco2)cc1 | 133 | OCHEM |
| Cc1sc2nc(CCl)nc(Cl)c2c1C | 143 | OCHEM |
| Nc1ccccc1OCC(F)(F)F | 50 | OCHEM |
| CCCCCCCCC/C=C/C=O | 5.5 | eChemPortal |
| CCCC(C)=NO[Si](ON=C(C)CCC)(ON=C(C)CCC)ON=C(C)CCC | 30.3 | eChemPortal |
| CC(C)(C)C(N)=NO | 94 | OCHEM |
| O=C(Cn1c(Cl)nc2ccccc21)c1ccccc1 | 169 | OCHEM |
| CCCCC/C=C\CCC(=O)O | 4.5 | PubChem |
| O=C(CCl)N1CCN(c2ccc([N+](=O)[O-])cc2)CC1 | 130 | OCHEM |
| S=c1[nH]ccn1Cc1ccccc1 | 147 | OCHEM |
| NNC1=c2cc(Cl)cc(Cl)c2=NC1=O | 262 | OCHEM |
| O=C(O)c1ccc(N2CCCC2)c([N+](=O)[O-])c1 | 260 | OCHEM |
| C[C@]12CC[C@@H]3c4ccc(OS(=O)(=O)O)cc4CC[C@H]3[C@@H]1CC[C@@H]2O | 178.5 | PubChem |
| O=C(CCl)c1ccc2c(c1)CCC2 | 52.5 | OCHEM |
| O=Cc1cccc(C(F)(F)F)c1 | -6.21 | eChemPortal |
| Clc1ccc(-c2cc(CBr)on2)cc1 | 117 | OCHEM |
| COc1ccccc1C(=O)Nc1ccc(O)cc1 | 173 | OCHEM |
| COc1ccccc1-c1nc(N)n[nH]1 | 215 | OCHEM |
| Cc1nc(-c2ccc(Cl)cc2)cs1 | 120 | OCHEM |
| CC[C@@]12CCCN3CCc4c(n(c5ccccc45)C(=O)C1)[C@H]32 | 174 | OCHEM |
| COC(=O)Nc1cccc(O)c1 | 96 | OCHEM |
| CS(=O)(=O)c1nc2ccccc2[nH]1 | 190 | OCHEM |
| CN(C)CCCN(CCCN(C)C)CCCN(C)C | -91 | eChemPortal |
| S=c1[nH]nc(-c2ccco2)o1 | 174 | OCHEM |
| N=c1[nH]c2c(s1)CC(N)CC2 (centres undefined) | 216.9 | eChemPortal |
| CCOc1ccc(Nc2ncccc2C(=O)O)cc1 | 190 | OCHEM |
| N#CCCn1ccnc1 | -79 | eChemPortal |
| Nc1cc(S(=O)(=O)N2CCOCC2)ccc1Cl | 178 | OCHEM |
| O=C1Cc2ccccc2C(=O)N1 | 191 | OCHEM |
| N[C@@H](CCC(=O)NNc1ccc(CO)cc1)C(=O)O | 206.1 | PubChem |
| CCCCCCCCCCCC1=NCCN1CCO | 39.5 | eChemPortal |
| Nc1nc(-c2ccc(F)cc2)cs1 | 112 | OCHEM |
| CCC1(CO)COC1 | -49.15 | eChemPortal |
| CC(=O)Nc1cc2ccccc2cc1C(=O)O | 191 | OCHEM |
| COc1ccc(C(O)CC(O)c2ccc(C(C)(C)C)cc2)cc1 (centres undefined) | 50.35 | eChemPortal |
| CC1(C)[C@@H]2CC[C@@]1(C)C(=O)[C@H]2C(=O)O | 128 | OCHEM |
| CC(=O)c1csc(N)n1 | 171 | OCHEM |

A selection of 7 entries from above:

| structure (SMILES) | MP (°C) | via |
|---|---|---|
| NS(=O)(=O)C1CCS(=O)(=O)C1 (centres undefined) | 145 | OCHEM |
| S=c1[nH]ccn1Cc1ccccc1 | 147 | OCHEM |
| S=c1[nH]nc(-c2ccco2)o1 | 174 | OCHEM |
| C[C@]12CC[C@@H]3c4ccc(OS(=O)(=O)O)cc4CC[C@H]3[C@@H]1CC[C@@H]2O | 178.5 | PubChem |
| CCCCN(c1nc(N2CCCC2)nc(N(CCCC)C2CC(C)(C)N(C)C(C)(C)C2)n1)C1CC(C)(C)N(C)C(C)(C)C1 | 158 | eChemPortal |
| Cc1nc(-c2ccc(Cl)cc2)cs1 | 120 | OCHEM |
| N#CCCn1ccnc1 | -79 | eChemPortal |

Values as listed in the OPERA 2.9 repository of K. Mansouri.